Assay outcomes from PubChem BioAssay.
uPA surface inh – cell surface uPA generation inhibition. cell surface uPA generation assay, qHTS. Potency, µM (top dose mostly 38.3 µM), for the others: top-dose activity change, negative = inhibition, hits mostly inhibitors. 330,000 compounds, 0.31% hits. AID 540303; active = well fitted inhibition curve with a large enough effect; inconclusive = small, poorly fitted or top-dose-only effect; inactive = no such curve, though single readings can be large or run the other way; tested in mouse RAW 264.7 cells; note: potency is the fitted concentration of half-maximal effect; % is set by controls: 0 for no effect and ±100 for the full control effect; nearly all actives have a fitted effect of over 55% in size
DT40 TDP1 CPT – growth inhibition of DT40 Tdp1-/-;hTDP1 cells with camptothecin (screen for TDP1 inhibitors) | chicken DT40 Tdp1-/-;hTDP1 cells + 20 nM CPT, ATP luminescence, 48 h | Potency, µM (top dose mostly 46.2 µM), for the others: top-dose activity change, negative = growth inhibition, actives largely listed as inhibitors | 420,000 compounds, 12% hits | AID 686979; note: potency is the fitted concentration of half-maximal effect; % is set by controls: 0 for no effect and ±100 for the full control effect; nearly all actives have a fitted effect of over 55% in size
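Cell growth measured by CellTiter-Glo luminescence after a minimum 48 h, 37 C compound exposure with 20 nM CPT in Tdp1-knockout DT40 cells stably expressing hTDP1, seeded 400/well; qHTS titration format.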
TDP1 block – inhibitors of human tyrosyl-DNA phosphodiesterase TDP1; Q9NUW8; recombinant TDP1, AlphaScreen DNA substrate cleavage; Potency, µM (top dose mostly 130 µM), for inactives: top-dose activity change, negative = inhibition, usual class: inhibitors; 350,000 compounds, 0.28% hits; AID 485290; note: potency is the fitted concentration of half-maximal effect; % is set by controls: 0 for no effect and ±100 for the full control effect; nearly all actives have a fitted effect of over 40% in size
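Steps: enzyme plus compound, 15 min RT; add biotin/phosphotyrosine-FITC oligonucleotide (15 nM final), react 5 min; add donor/acceptor beads (10 ug/ml final), 10 min; read AlphaScreen. Tdp1 at 1 nM final.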
TDP1 cell noCPT – qHTS for Inhibitors of human tyrosyl-DNA phosphodiesterase 1 (TDP1): qHTS in cells in absence of CPT; Potency, µM (doses to about 46.2 µM), without a hit: top-dose activity change, negative = growth inhibition, most hits filed as inhibitors; 420,000 compounds, 15% hits; DT40 Tdp1-/- hTDP1 cells, no CPT, ATP luminescence, 48 h; AID 686978, 2013; note: potency is the fitted concentration of half-maximal effect; % is set by controls: 0 for no effect and ±100 for the full control effect; nearly all actives have a fitted effect of over 55% in size
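Chicken DT40 Tdp1-/- cells complemented with human TDP1, screened without camptothecin (DMSO vehicle only), 400 cells/well. Compounds pin-transferred, cells incubated at 37 °C for at least 48 hr. Growth read as ATP-dependent luminescence (CellTiter-Glo, 30 min at RT).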
miR-21 reporter – miR-21 reporter, rising signal. HeLa miR-21 FLuc reporter, luciferase, 48 h. Potency, µM (titrated, usually from 38.3 µM), without a hit: at the top dose reporter change, positive = more light. 340,000 tested, under 10 active. AID 2288; active = well fitted rising curve with a large enough effect; inconclusive = small, poorly fitted or top-dose-only effect; inactive = no such curve, though single readings can be large or run the other way;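 also: % of control where 0% means no effect; miR-21 action dims this reporter so a rising signal means less miR-21 action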
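HeLa cells stably expressing CMV-driven firefly luciferase with a downstream miR-21 binding sequence, endogenously expressing miR-21, were treated with titrations (up to about 40uM final) for 48 hours at 37 degree Celsius. Luciferase luminescence was read after lysis.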
Active calls of the source: *; ? = inconclusive; . = no result given; [ ] = dose if it differs, or a comment. The list is not random: actives were taken first. Their share in the collection is about 16%. Unless noted, calls come from the whole dose curve; as a rule, active = well fitted curve in the direction sought with a large enough effect; inconclusive = small, poorly fitted or top-dose-only effect, or another doubt; inactive = no such curve, though single readings can be large; an effect the other way counts as inactive or inconclusive.

| No. | SMILES | miR-21 reporter | TDP1 cell noCPT | TDP1 block | DT40 TDP1 CPT | uPA surface inh |
| --- | --- | --- | --- | --- | --- | --- |
| 1 | O=C(NC(=C(Cl)Cl)S(=O)(=O)c1ccc(Cl)cc1)c1ccccc1 | ? | 9.2µM* | 0.0% | 6.51µM* | 8.91µM* |
| 2 | CC(=O)Nc1ccc(S(=O)(=O)N2CCN(S(=O)(=O)c3ccccc3)CC2)cc1 | 1.1% | 11.5% | . | -0.2% | 13.3% |
| 3 | COc1cccc(OCC(=O)O/N=C(\N)c2ccncc2)c1 | -51.3% | -2.8% | 2.5%[0.0935 µM] | 1.1% | 0.2% |
| 4 | Cc1c(/C=C/C(=O)c2ccccc2O)cnn1C | -62.6% | ? | 0.0% | -26.4% | -0.7% |
| 5 | CCCc1cc(-n2ccnc2)n2c(nc3ccccc32)c1C#N | 26.3% | ? | 3.1% | -17.9% | -14.4% |
| 6 | O=C(NCC1CCCO1)C(=O)NCC1CCCN1S(=O)(=O)c1ccccc1 (centres undefined) | . | -10.1% | . | -9.2% | -12.2% |
| 7 | CN1C(C(=O)Nc2ccc(F)cc2F)=CC(c2cccs2)=NS1(=O)=O | -4.9% | ? | 2.9% | -28.2% | -22.7% |
| 8 | Cc1ccc(C(=O)NC(=C(Cl)Cl)S(=O)(=O)c2ccc(C)cc2)cc1 | 14.1% | ? | 7.0% | ? | -7.5% |
| 9 | Cc1ccc(S(=O)(=O)C(NC(=O)c2ccccc2)=C(Cl)Cl)cc1 | . | 13µM* | . | 23.1µM* | -16.4% |
| 10 | O=C(NCCCc1ccccc1)c1cccc(Br)c1 | . | -25.3% | . | -11.9% | 3.9% |
| 11 | O=C(CN(Cc1ccccc1)C(=O)CCl)c1cccc(Br)c1 | . | 16.4µM* | . | 9.2µM* | ? |
| 12 | CN1C[C@@H]2[C@@H]3C(=O)N(C)C(=O)[C@@H]3[C@](Cc3ccccc3)(C1=O)N2C(=O)c1ccc(F)cc1 | . | -23.5% | . | -8.9% | 8.3% |
| 13 | NC(=O)c1ccsc1NC(=O)CSc1nnc(NC2CC2)s1 | . | -2.0% | -2.1% | -4.4% | -1.3% |
| 14 | CCN(c1ccc(C)cc1)S(=O)(=O)c1nnc(NC(=O)c2cccs2)s1 | -59.8% | ? | 0.0% | ? | . |
| 15 | COc1ccc(CC(N)c2csc(NC(=O)NCc3ccccc3)n2)cc1 (centres undefined) | . | ? | . | 20.6µM* | . |
| 16 | COc1ccc(CC(N)c2csc(NC(=O)c3cccs3)n2)cc1 (centres undefined) | . | 23.1µM* | . | 18.4µM* | . |
| 17 | COc1ccc(N(CC(C)C)S(=O)(=O)c2nnc(NC(=O)c3cccs3)s2)cc1 | 23.7% | 20.6µM* | -10.4% | ? | . |
| 18 | COc1cc(CNC(=O)Nc2nc(C(N)Cc3ccc(C(F)(F)F)cc3)cs2)cc(OC)c1OC (centres undefined) | . | 11.6µM* | . | 13µM* | . |
| 19 | COc1ccc(CC(CC(=O)O)C(=O)NCc2ccccc2)cc1 (centres undefined) | -2.5% | -0.7% | 5.6% | -0.1% | 3.0% |
| 20 | COc1ccc(CNC(=O)Cn2cc(C(F)(F)F)ccc2=O)cc1OC | -0.3% | -18.3% | 3.9% | -15.8% | -1.6% |
| 21 | COc1cc2c(cc1OC)C(c1ccccc1)N(C(=O)c1ccccc1F)CC2 (centres undefined) | -1.9% | ? | . | -21.6% | -12.4% |
| 22 | CCCNC(=O)Nc1nc(C(N)c2ccc(OC)cc2)cs1 (centres undefined) | . | -21.9% | . | -21.0% | . |
| 23 | COc1ccc(CNC(=O)Nc2nc(C(N)c3ccccc3)cs2)cc1 (centres undefined) | . | 20.6µM* | . | ? | . |
| 24 | COC(=O)CN(c1cc(C(F)(F)F)ccc1Cl)S(C)(=O)=O | -1.7% | 2.6% | -3.1% | 10.1% | 8.4% |
| 25 | Cc1ccsc1/C=C/c1ccc2cccc(O)c2n1 | -41.0% | 23.1µM* | 9.6% | ? | . |

Whole records as entered above.
CN1C[C@@H]2[C@@H]3C(=O)N(C)C(=O)[C@@H]3[C@](Cc3ccccc3)(C1=O)N2C(=O)c1ccc(F)cc1 is entered as miR-21 reporter = .; TDP1 cell noCPT = -23.5%; TDP1 block = .; DT40 TDP1 CPT = -8.9%; uPA surface inh = 8.3%
COc1cc(CNC(=O)Nc2nc(C(N)Cc3ccc(C(F)(F)F)cc3)cs2)cc(OC)c1OC (centres undefined) is entered as miR-21 reporter = .; TDP1 cell noCPT = 11.6µM*; TDP1 block = .; DT40 TDP1 CPT = 13µM*; uPA surface inh = .

Continued:
| No. | SMILES | miR-21 reporter | TDP1 cell noCPT | TDP1 block | DT40 TDP1 CPT | uPA surface inh |
| --- | --- | --- | --- | --- | --- | --- |
| 26 | Oc1cccc2ccc(/C=C/c3cccs3)nc12 | -34.0% | 14.1µM* | 8.0% | 15.8µM* | . |
| 27 | Cc1cccc(/C=C/c2cccs2)n1 | . | 0.631µM* | . | 1.12µM* | . |
| 28 | CCOC(=O)C1CCCN1C(=O)c1ccc(OC)c(Br)c1 (centres undefined) | -0.4% | -9.5% | -1.8% | -15.0% | 1.8% |
| 29 | CCOC(=O)C1CCCCN1C(=O)c1cc2ccc(OC)cc2c2cc(OC)c(OC)cc12 (centres undefined) | . | 18.4µM* | . | ? | -4.4% |
| 30 | O=C(/C=C/c1ccc(Br)cc1)N1CCN(Cc2ccccc2)CC1 | . | ? | . | ? | -2.4% |
